Test results: US10487147B2, “Anti-PD-L1 antibodies and uses thereof” (Merck Patent GmbH, priority 2011, dated 2019)

Key:
[1] = Fluorescence monitored thermal unfolding assay of wild type and mutant PD-L1 proteins; type: physicochemical; settings: temperature midpoint of fluorescently monitored thermal denaturation of the PD-L1 antigen protein
From the text: The results are summarized in the table below, where 48 point mutants of PD-L1 were compared to wild-type PD-L1 antigen for antibody binding. SPR (Biacore) was used to perform a kinetic study allowing determination of kinetic rate constants (ka and kd). Briefly, goat polyclonal anti-human Fc antibody was chemically coupled to a CM5 chip. […] Buffer was used to wash out unbound antibody until the baseline RU stabilized. Antigen (wild-type or mutant PD-L1) was next injected at a fixed concentration for 3 minutes and the association was recorded. Buffer was injected for a further 3 minutes and dissociation was observed. […] The rate constants were determined by iterative fitting of the data to a 1:1 binning model by an algorithm that minimizes Chi-squared. The equilibrium dissociation constant (KD) was calculated as the ratio of the kinetic constants and the change in the Gibbs free energy of binding of mutant relative to wild-type PD-L1 (ΔΔGmut) was derived from the ratio of the wild-type and mutant KDs. […] Mutants at Y56 bad such a low affinity that the KD could be accurately measured and the minimum KD is given instead. For D61A no binding could be found. […] The temperature midpoint of fluorescently monitored thermal denaturation is given for the wild type and mutant proteins. ND: Not Determined; BP: Biphasic. […]

[2] = Analytical size exclusion chromatography of wild type and mutant PD-L1 proteins; type: physicochemical; design: key: M: monodisperse and the same elution volume as wild type; M/T: peak at the same elution volume as wild type but with an additional tail; settings: qualitative appearance of the PD-L1 antigen protein on size exclusion chromatography

In the case of “PDL-1: wild-type PD-L1 antigen used for antibody binding”, the T1/2 [1] is reported as 59.1 °C and the SEC [2] is reported as “M”.
